Laboratory results taken from ChEMBL document CHEMBL1641586, “Stereospecific synthesis and structure-activity relationships of unsymmetrical 4,4-diphenylbut-3-enyl derivatives of nipecotic acid as GAT-1 inhibitors” (Bioorg Med Chem Lett, 2011).

By UniProt entry, the sequences of proteins in these tests, tags left out. Where a name states a change or a piece, a line headed by the entry shows the natural chain unless it says otherwise.
UniProt P30531: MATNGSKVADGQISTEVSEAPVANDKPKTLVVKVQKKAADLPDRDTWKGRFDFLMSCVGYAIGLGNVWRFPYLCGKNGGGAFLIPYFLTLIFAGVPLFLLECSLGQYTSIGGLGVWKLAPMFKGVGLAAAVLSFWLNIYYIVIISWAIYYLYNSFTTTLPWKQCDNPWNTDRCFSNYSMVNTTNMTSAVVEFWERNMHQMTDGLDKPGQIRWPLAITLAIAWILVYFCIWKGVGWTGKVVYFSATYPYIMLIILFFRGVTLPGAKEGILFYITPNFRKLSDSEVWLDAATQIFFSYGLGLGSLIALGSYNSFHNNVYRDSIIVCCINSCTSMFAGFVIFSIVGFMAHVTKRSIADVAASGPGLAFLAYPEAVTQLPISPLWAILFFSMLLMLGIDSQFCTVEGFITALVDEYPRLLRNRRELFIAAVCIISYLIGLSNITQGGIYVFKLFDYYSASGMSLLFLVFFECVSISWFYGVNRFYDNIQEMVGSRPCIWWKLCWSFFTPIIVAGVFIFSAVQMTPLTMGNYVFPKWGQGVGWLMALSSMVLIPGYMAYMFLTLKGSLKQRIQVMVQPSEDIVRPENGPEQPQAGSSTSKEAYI

Target: Sodium- and chloride-dependent GABA transporter 1 (Homo sapiens, UniProt P30531)
Test: Displacement of [3H]Tiagabine from human recombinant GAT1 expressed in HEK293 cells by equilibrium binding assay
Type: cell-based

Ki: 72.4 nM
SMILES: O=C(O)[C@@H]1CCCN(CCC=C(c2ccccc2)c2ccccc2)C1
